# According to PubChem BioAssay AID893 (National Center for Advancing Translational Sciences (NCATS), 2007):
# Only a part is listed here, and it is no random draw. Records with an inconclusive call do not appear. Where a call stands in place of a potency, no number is given. Activity calls are given as the source filed them. Calls come from the whole dose curve; as a rule, active = well fitted inhibition curve with a large enough effect; inconclusive = small, poorly fitted or top-dose-only effect; inactive = no such curve, though single readings can be large or run the other way.
# Biological target: 3-hydroxyacyl-CoA dehydrogenase type-2 (Homo sapiens) (UniProt Q99714)
# Assay: qHTS Assay for Inhibitors of HSD17B4, hydroxysteroid (17-beta) dehydrogenase 4;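 note: the protocol describes HADH2 (HSD17B10) and not the HSD17B4 of the title; nearly all actives have a fitted effect of over 70% in size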
# Settings: recombinant HSD17B10, NADH fluorescence kinetic; series mostly up to 57.1 µM
# Potency is the fitted concentration of half-maximal effect.
Structure (SMILES),"activity change, negative = inhibition",Potency
O=[As](O)(O)c1ccc([As](=O)(O)O)cc1,inactive: -2.56% [at 11.4 µM],–
O=[N+]([O-])c1cccc([N+](=O)[O-])c1,inactive,–
CCOP1(=S)c2c(C)nn(CCC#N)c2N=C(c2ccccc2F)N1C (configuration not stated),inactive,–
CCOP1(=S)c2c(C)nn(CCC#N)c2N=C(c2ccc(F)cc2)N1C (configuration not stated),inactive,–
Cc1ccc([N+](=O)[O-])cc1[N+](=O)[O-],inactive,–
NC(=O)Nc1ccc([As](=O)(O)O)cc1,inactive,–
CN(C(=O)Cc1ccc(Cl)c(Cl)c1)[C@@H]1CC[C@@]2(CCCO2)C[C@H]1N1CCCC1,inactive,–
Cc1ccc(C)c(NP(C)(=O)Oc2ccccc2)c1 (configuration not stated),inactive,–
O=C(CC(=O)c1ccccc1)O[C@H]1CN2CCC1CC2,inactive: 9.28% [at 11.4 µM],–
NS(=O)(=O)Cc1ccc([As](=O)(O)O)cc1,inactive: 1.34% [at 11.4 µM],–
Clc1n[nH]nc1-c1nn[nH][15n]1,inactive,–
CN(CCCl)Cc1cc(Cl)c(NC2=NCCN2)c(Cl)c1,inactive,–
O=P1(Nc2ccccn2)COc2ccccc2OC1,inactive,–
Cc1nc2ccc3ccccc3c2s1.O=[N+]([O-])c1cc([N+](=O)[O-])c(O)c([N+](=O)[O-])c1,inactive,–
CN(C(=O)Cc1ccc(Cl)c(Cl)c1)[C@@H]1CCCC[C@H]1N1CCCC1,inactive,–
Cc1nn(-c2ccccc2)c2c1P(=O)(N1CCOCC1)N(C)C(c1ccccc1)=N2 (configuration not stated),inactive,–
O=P1(Nc2ccc(Br)cn2)COc2ccccc2OC1,inactive,–
O=P1(Nc2ncccn2)COc2ccccc2OC1,inactive,–
N1=C(c2nnc(-c3nn[nH]n3)nn2)NNN1,inactive: 2.18% [at 11.4 µM],–
CN(N=O)C(=N)N[N+](=O)[O-],inactive,–
CP(=S)(Nn1cnnc1)Oc1ccccc1 (configuration not stated),inactive,–
O=C(O)[C@@H](O)c1ccc([As](=O)(O)O)cc1,inactive: 6.07% [at 11.4 µM],–
CP(=O)(NC(=O)Nc1ccccc1)Oc1ccccc1 (configuration not stated),inactive,–
O=C(COc1ccccc1)OC1CN2CCC1CC2 (configuration not stated),inactive,–

Structure (SMILES),"activity change, negative = inhibition",Potency
COP1(=S)c2c(C)nn(CCC#N)c2N=C(c2ccc(F)cc2)N1C (configuration not stated),inactive,–
CCOP(C)(=S)SCC(=O)NC(C)C(=O)O (configuration not stated),inactive,–
NC(=O)Nc1cc([As](=O)(O)O)cc(I)c1O,inactive: -6.4% [at 11.4 µM],–
O=C(OC1CN2CCC1CC2)C12CC3CC(CC(C3)C1)C2 (configuration not stated),inactive,–
O=[N+]([O-])[O-].[NH4+],inactive,–
Cc1ccc(NP(C)(=O)Oc2ccccc2)c(C)c1 (configuration not stated),inactive,–
[N-]=[N+]=NCC(N)=O,inactive: -1.72% [at 11.4 µM],–
COc1ccccc1OP(C)(=O)Nc1ccc(C)cc1 (configuration not stated),inactive,–
O=[As]c1ccc(S(=O)(=O)NCCO)cc1 (configuration not stated),inactive: 5.46% [at 11.4 µM],–
CN(C(=O)Cc1ccc(Cl)c(Cl)c1)[C@H]1CCCC[C@@H]1N1CCCC1,inactive,–
COc1ccccc1OP(C)(=O)Nc1ccc(C)c(C)c1 (configuration not stated),inactive,–
C(Cc1nn[nH]n1)c1nn[nH]n1,inactive: 5.43% [at 11.4 µM],–
Cc1nc2ccc3ccccc3c2o1.O=[N+]([O-])c1cc([N+](=O)[O-])c(O)c([N+](=O)[O-])c1,–,active: 20 µM
[N-]=[N+]=NCC(O)CN=[N+]=[N-] (configuration not stated),inactive: 7.1% [at 11.4 µM],–
O=[N+]([O-])c1ccc(C[As](=O)(O)O)cc1,inactive: 2.79% [at 11.4 µM],–
CP(=O)(Nc1ccccn1)Oc1ccccc1 (configuration not stated),inactive,–
NCC[C@@H](N)CSP(=O)(O)O,inactive: 2.79% [at 11.4 µM],–
Cc1c2non([O-])c-2c(C)[n+](=O)[n+]1[O-],inactive,–
OCCSCCO,inactive,–
COc1ccccc1OP(C)(=O)Nc1c(C)n(C)n(-c2ccccc2)c1=O (configuration not stated),inactive,–
CCc1nc2c(n1)c1c(non1O)c1c2no[n+]1[O-],inactive,–
CP(=O)(Oc1ccccc1)N1CCOC1=O (configuration not stated),inactive,–
N#[O+].[C-]#N.[C-]#N.[C-]#N.[C-]#N.[C-]#N.[Fe+2].[Na+].[Na+],–,active: 15.8 µM
O=C(CO)Nc1ccc([As](=O)(O)O)cc1,inactive: 1.47% [at 11.4 µM],–

Structure (SMILES),"activity change, negative = inhibition",Potency
CN(C(=O)Cc1ccccc1)[C@@H]1CC[C@@]2(CCCO2)C[C@H]1N1CCCC1,inactive,–
C/C1=C2N=C(/C=C3N=C(/C(C)=C4\[N-][C@@](C)([C@H]5N=C1[C@@](C)(CCC(=O)NC[C@H](C)OP(=O)([O-])O[C@@H]1[C@H](O)[C@H](n6cnc7cc(C)c(C)cc76)O[C@@H]1CO)[C@@H]5CC(N)=O)[C@](C)(CC(N)=O)[C@H]4CCC(N)=O)[C@@](C)(CC(N)=O)[C@@H]\3CCC(N)=O)C(C)(C)[C@@H]/2CCC(N)=O.[C-]#N.[Co+3],inactive,–
CN(C)CCOC(=O)C(O)(c1ccccc1)C1CCCCC1 (configuration not stated),inactive,–
[N-]=[N+]=Nc1ccc([As](=O)(O)O)cc1,inactive: 8.28% [at 11.4 µM],–
Cc1cc([N+](=O)[O-])cc([N+](=O)[O-])c1O,inactive,–
O=C(OC1CN2CCC1CC2)c1cccc(Cl)c1 (configuration not stated),inactive,–
Cc1c([N+](=O)[O-])cccc1[N+](=O)[O-],inactive,–
Cc1ccc([N+](=O)[O-])c([N+](=O)[O-])c1,inactive,–
CCOP(C)(=S)SCC(=O)NC(C)(CC)C(=O)O (configuration not stated),inactive,–
CCOP(=O)(CC)OCC,inactive,–
c1nnnn1CCn1cnnn1,inactive,–
O=P(Nc1nccs1)(c1ccccc1)c1ccccc1,inactive,–
C[C@@H](O)COc1ccc([As](=O)(O)O)cc1N,inactive: 7.02% [at 11.4 µM],–
[NH4+].[O-][Cl+3]([O-])([O-])[O-],inactive,–
CCN(CCCl)Cc1ccccc1C,inactive,–
Cc1ccccc1NP(C)(=O)Nc1ccccc1C,inactive,–
NNC(NN)NN.n1nc(-c2nn[nH]n2)n[nH]1,inactive: -21.9% [at 11.4 µM],–
CP(=O)(Nc1ccc2c(c1)OCCO2)Oc1ccccc1 (configuration not stated),inactive,–
CN1CCC[C@H](OC(=O)C(c2ccccc2)c2ccccc2)C1,inactive: 7.61% [at 11.4 µM],–
CP(=O)(Nc1ccccc1F)Oc1ccccc1 (configuration not stated),inactive,–
O=P1(Nc2nc3ccc(Cl)cc3s2)COc2ccccc2O1 (configuration not stated),inactive,–
Cc1cccc([N+](=O)[O-])c1[N+](=O)[O-],inactive,–
CCC(C)(OO)OOC(C)(CC)OO (configuration not stated),inactive,–
COC(=O)c1cc2c(s1)N=C(c1ccccc1)N(C)P2(=O)N1CCOCC1 (configuration not stated),inactive,–
